Compound activity from PubChem.
Sampled rows, rich in hits. Any-hit rate of the full collection: about 2.3%.
MC4R antag cAMP – human MC4R antagonism in cAMP assay; P32245; MC4R-expressing cells, MTII-stimulated cAMP, LANCE TR-FRET; inhibition, % at 6.5 µM; 360,000 compounds, 0.48% hits; AID 540295;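 active = inhibition above its plate's cutoff, the mean of tested wells on that plate plus 3 SD, cut at about 29% in these data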;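 note: 0% = Melanotan II alone and 100% = Melanotan II plus saturating MCL0020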
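system = U2OS cells with stable human MC4R expression | also added = Melanotan II challenge after compound preincubation | dosing = one concentration, 6.5 µM nominal | incubation = compound 30 min, challenge 1 h, detection 1 h | measured by = TR-FRET with Eu-cAMP and labeled anti-cAMP, 671 nm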
CendR NRP1 mod – alters CendR peptide binding to human NRP-1. O14786. FAM-RPARPAR peptide binding to NRP-1, fluorescence polarization. inhibition, % at 25 µM. 360,000 compounds, 0.85% hits;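 active = inhibition or corrected inhibition above about 18%, plus a signal ratio from 0.5 to 1.5, limit read from the data, passing the limit was not always enough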
ARFGAP1 inhibitor – inhibitors of rat ARFGAP1; Q62848; Arfgap1-stimulated ARF1 GTP hydrolysis, GDP FP detection; inhibition, % at 16.5 µM; 360,000 compounds, 0.26% hits;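 active = inhibition above a per-plate limit, mean inhibition of low control wells plus 3 SD, cut at about 25% in these data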;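 note: 0% = DMSO wells with enzyme and 100% = wells lacking Arfgap1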
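Assay system: purified rat His6-Arfgap1 residues 1-136 (GAP domain); Reagent: human Δ17 ARF1 bound to GTP; Dosing: 16.5 µM single point, 1.26% DMSO; Times: GTP hydrolysis reaction 2 h at 25 °C; Signal: FP, GDP Alexa 633 tracer displaced from anti-GDP antibody, 620/688 nm; Measure: % inhibition from polarization.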
UUG fidelity – modulators of yeast start codon fidelity, primary screen, whole organism, S. cerevisiae, single point, plate reader. S. cerevisiae UUG-firefly luciferase reporter, luminescence/redox ratio. activity score, % at 18.7 µM. 350,000 tested, 0.13% active;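 active = replicate mean at a twofold rise or more, about +100% in these data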;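 also: firefly luciferase made from a UUG start codon reports start codon fidelity; reporter light over untreated wells divided by growth signal over untreated wells; some hits fall short of that in this replicate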
ASAP1 inh – ASAP1 ArfGAP inhibition; Q9ULH1; ASAP1-stimulated ARF1 GTP hydrolysis, GDP FP detection; inhibition, % at 16.5 µM; 360,000 compounds, 0.19% hits; AID 624377; in the data active = inhibition above about 25%;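 note: 0% = vehicle with enzyme and substrate and 100% = no enzyme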
MC4R barr agon – activates human MC4R beta-arrestin recruitment; P32245; U2OS MC4R beta-arrestin complementation, luminescence; percent of melanotan II response, DMSO zero; activation, % at 8.9 µM; 360,000 compounds, 0.98% hits; AID 540308;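 active = activation above a per-plate cutoff, the mean activation of sample wells on that plate plus 3 SD, cut at about 8% in these data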
cAMP nonselect – U2OS forskolin cAMP inhibition counter-screen; inhibition, % at 6.5 µM; AID 602193; shares compounds with MC4R antag cAMP; 1,600 compounds, 26% hits; parental U2OS, LANCE TR-FRET;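 active = mean inhibition over triplicates above the low-control well mean plus 3 SD, set per campaign, cut at about 13% in these data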;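 note: signal is single emission at 671 nm which falls as cellular cAMP rises; 0% = forskolin-stimulated wells and 100% = buffer without forskolin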
MC4R cAMP antag – human MC4R cAMP antagonism confirmation | 1,600 compounds, 27% hits | shares compounds with MC4R antag cAMP | inhibition, % at 6.5 µM | MC4R-expressing cells, MTII-stimulated cAMP, TR-FRET; in the data active = inhibition above about 29%;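 note: 0% = agonist stimulated wells alone and 100% = agonist stimulated wells plus saturating reference antagonist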
Starred values were filed as active, the others as inactive; / = no result given.

Labels used below – A = MC4R antag cAMP; B = CendR NRP1 mod; C = ARFGAP1 inhibitor; D = UUG fidelity; E = ASAP1 inh; F = MC4R barr agon; G = cAMP nonselect; H = MC4R cAMP antag
(1) Cc1ccc(-n2nc3ccc(NC(=S)NC(=O)/C=C/c4ccco4)cc3n2)cc1
  A = 41*	B = -16	C = 8	D = /	E = -8	F = 2	G = 5	H = 26

(2) Cc1ccc(-n2nc3cc(C)c(NC(=S)NC(=O)/C=C/c4ccco4)cc3n2)cc1
  A = 11	B = -10	C = 8	D = /	E = 7	F = 2	G = /	H = /

(3) CN(C)Cc1cn(CC[C@H]2CC[C@@H](NC(=O)Nc3ccc4c(c3)OCO4)[C@@H](CO)O2)nn1
  A = /	B = /	C = /	D = -3	E = /	F = /	G = /	H = /

(4) O=C(OCC(=O)N1CCCC1=O)c1nc(Cl)c(Cl)c(Cl)c1Cl
  A = 29*	B = 14	C = -4	D = -6	E = 5	F = -4	G = 23*	H = 47*

(5) CCCCNc1c(-c2ccc(OC)c(SC(C)CC)c2)nc2ccc(C)cn12 (centres undefined)
  A = 36*	B = -5	C = 3	D = -14	E = 14	F = 1	G = 22*	H = 48*

(6) CCC(C)Sc1ccc(-c2nc3ccc(C)cn3c2NCc2ccccc2)cc1OC (centres undefined)
  A = 35*	B = -17	C = /	D = -6	E = /	F = -1	G = 18*	H = 44*

(7) CCC(C)Sc1cc(-c2nc3ccc(C)cn3c2NCc2ccccc2)ccc1OC (centres undefined)
  A = 47*	B = 0	C = -7	D = -14	E = -7	F = -3	G = 27*	H = 78*

(8) COc1ccc(-c2cc(-c3nc4ccccn4c3NCc3ccccc3)ccc2OC)cc1
  A = 37*	B = 4	C = 17	D = 9	E = 4	F = 3	G = 9	H = 34*

(9) CCCCNc1c(-c2ccc(OC)c(SC(C)CC)c2)nc2ccc(Cl)cn12 (centres undefined)
  A = 15	B = -20	C = -16	D = -7	E = 3	F = 4	G = /	H = /

(10) COc1ccc(-c2nc3ccc(C)cn3c2NCc2ccccc2)cc1SC1CCCCC1
  A = 13	B = -23	C = /	D = -12	E = /	F = 1	G = /	H = /

(11) COc1ccc(S(=O)(=O)Nc2cccc3c2O[C@@H](CN(C)S(=O)(=O)c2ccc(C)cc2)[C@H](C)CN([C@@H](C)CO)C3=O)cc1
  A = /	B = /	C = /	D = -9	E = /	F = /	G = /	H = /

(12) CCCCC(CC)CN=C(N)NC(N)=NCCCCCCN=C(N)NC(N)=NCC(CC)CCCC (centres undefined)
  A = 69*	B = -8	C = /	D = -62	E = /	F = 3	G = 55*	H = 90*

(13) C[C@H](CO)N1C[C@H](C)[C@H](CN(C)C(=O)Cc2ccccn2)Oc2cc(C#Cc3ccccc3)ccc2S1(=O)=O
  A = /	B = /	C = /	D = -7	E = /	F = /	G = /	H = /

(14) CN(C)S(=O)(=O)c1ccc(-c2csc(N/N=C/c3ccc(O)cc3)n2)cc1
  A = 32*	B = -2	C = 17	D = -23	E = 14	F = 9.8*	G = 1	H = 29*

(15) CNC[C@@H]1Oc2c(cccc2N(C)C)C(=O)N([C@H](C)CO)C[C@H]1C
  A = /	B = /	C = /	D = -14	E = /	F = /	G = /	H = /

Overlap with the part before: three entries; new compounds follow.
Labels used below – A = MC4R antag cAMP; B = CendR NRP1 mod; C = ARFGAP1 inhibitor; D = UUG fidelity; E = ASAP1 inh; F = MC4R barr agon; G = cAMP nonselect; H = MC4R cAMP antag
(13) C[C@H](CO)N1C[C@H](C)[C@H](CN(C)C(=O)Cc2ccccn2)Oc2cc(C#Cc3ccccc3)ccc2S1(=O)=O
  A = /	B = /	C = /	D = -7	E = /	F = /	G = /	H = /

(14) CN(C)S(=O)(=O)c1ccc(-c2csc(N/N=C/c3ccc(O)cc3)n2)cc1
  A = 32*	B = -2	C = 17	D = -23	E = 14	F = 9.8*	G = 1	H = 29*

(15) CNC[C@@H]1Oc2c(cccc2N(C)C)C(=O)N([C@H](C)CO)C[C@H]1C
  A = /	B = /	C = /	D = -14	E = /	F = /	G = /	H = /

(16) O=C(CN(Cc1ccc(Cl)cc1)C(=O)CNS(=O)(=O)c1ccccc1)NCC1CCCO1 (centres undefined)
  A = 31*	B = 3	C = 0	D = -12	E = -13	F = 2	G = 0	H = 6

(17) CCOC(=O)c1c(NC(=O)C2CC2)sc2c1CC(C)(C)OC2
  A = 9	B = -19	C = 3	D = /	E = -2	F = -2	G = /	H = /

(18) CCOC(=O)c1c(NC(=O)CCC(=O)O)sc2c1CC(C)(C)OC2
  A = 33*	B = -5	C = 22	D = -10	E = 6	F = -1	G = 2	H = -2

(19) CC(=O)N(C)C[C@H]1Oc2cc(C#CC3CC3)ccc2S(=O)(=O)N([C@@H](C)CO)C[C@H]1C
  A = /	B = /	C = /	D = -6	E = /	F = /	G = /	H = /

(20) CCCCN(C)C(=O)c1nc2ccccn2c1CN1CCN(C/C=C/c2ccccc2)CC1
  A = 35*	B = 2	C = -7	D = /	E = 0	F = -1	G = -3	H = 4

(21) COc1ccc(NC(=O)Nc2ccc3c(c2)C(=O)N([C@H](C)CO)C[C@@H](C)[C@@H](CN(C)C(=O)Nc2ccc(C(F)(F)F)cc2)O3)cc1
  A = /	B = /	C = /	D = -9	E = /	F = /	G = /	H = /

(22) CC1=CC(=O)C(C(C)C)=C/C1=N/OS(=O)(=O)c1ccccc1
  A = 71*	B = 7	C = 9	D = 4	E = -2	F = 31*	G = 36*	H = 91*

(23) CC1=CC(=O)C=C(C)C1=NOS(=O)(=O)c1ccccc1
  A = 22	B = 8	C = 15	D = -51	E = -18	F = 6	G = /	H = /

(24) Cc1ccc(-c2c3c(nc4sc(C(N)=O)c(N)c24)CCC3)cc1
  A = 4	B = -1	C = 6	D = /	E = 2	F = 5	G = /	H = /

(25) COc1ccc(-c2c3c(nc4sc5c(Cl)nc(C)nc5c24)CCC3)cc1
  A = 41*	B = -18	C = /	D = /	E = /	F = 1	G = 41*	H = 64*

(26) NS(=O)(=O)c1ccc(CCNc2ccn3nc(-c4ccccc4)cc3n2)cc1
  A = 11	B = -4	C = 10	D = -9	E = 10	F = 2	G = /	H = /

(27) CC(C)Cc1ccc(-c2cc3nc(NCCc4ccc(S(N)(=O)=O)cc4)ccn3n2)cc1
  A = 29*	B = -37	C = 2	D = -3	E = 4	F = 5	G = 5	H = 3

(28) CCCN(CCC)S(=O)(=O)c1ccc(N2CCCC2=O)c([N+](=O)[O-])c1
  A = 4	B = -2	C = 4	D = -1	E = 5	F = -2	G = /	H = /

(29) CCCN(CCC)S(=O)(=O)c1ccc(Cl)c([N+](=O)[O-])c1
  A = 41*	B = 10	C = 7	D = /	E = -2	F = -4	G = 31*	H = 50*

(30) CCN(C(=O)CSc1n[nH]c(-c2cccs2)n1)C1CCS(=O)(=O)C1 (centres undefined)
  A = 30*	B = 8	C = -10	D = -15	E = -1	F = -1	G = -4	H = -3

(31) CCOC(=O)c1c(NC(=O)CSc2nc3cc(Cl)ccc3c(=O)n2Cc2ccco2)sc(C(=O)N(C)C)c1C
  A = 31*	B = -6	C = 16	D = /	E = -6	F = 1	G = -4	H = 6

(32) CCc1ccc(NC(=O)CSc2nc3cc(C(=O)OC)ccc3c(=O)n2Cc2ccco2)cc1
  A = 1	B = -3	C = 11	D = -14	E = 2	F = -1	G = /	H = /

(33) CCOC(=O)c1c(NC(=O)COC(=O)CNC(=O)c2ccc(Cl)cc2Cl)sc(C(=O)N(C)C)c1C
  A = 31*	B = -11	C = -7	D = 10	E = -20	F = -1	G = 6	H = 8

(34) C[C@H]1CN([C@@H](C)CO)S(=O)(=O)c2ccc(C3=CCCC3)cc2O[C@H]1CN(C)Cc1ccncc1
  A = /	B = /	C = /	D = 4	E = /	F = /	G = /	H = /

(35) CN(c1cccc(NC(=O)c2ccc(N(C)S(=O)(=O)c3ccccc3)cc2)c1)S(C)(=O)=O
  A = 42*	B = -5	C = -16	D = /	E = -2	F = 0	G = 6	H = 0

(36) C[C@H]1CN([C@@H](C)CO)C(=O)c2cc(NC(=O)Cc3cn(C)c4ccccc34)ccc2O[C@H]1CN(C)C(=O)NC1CCCCC1
  A = /	B = /	C = /	D = 2	E = /	F = /	G = /	H = /

(37) COc1ccc(OC(=O)N2C/C(=C/c3ccccc3)C(=O)/C(=C\c3ccccc3)C2)cc1
  A = 33*	B = 0	C = -6	D = /	E = -5	F = -1	G = 15*	H = 10

(38) CCOC(=O)N1C/C(=C\c2ccccc2)C(=O)/C(=C/c2ccccc2)C1
  A = 2	B = -4	C = 4	D = -2	E = -8	F = -3	G = /	H = /
